Test results: patent US6649595B2, “Regulation of biological events using novel compounds” (ARIAD Gene Therapeutics, Inc., priority 1995, dated 2003)

Protein sequences, listed by entry. Tags and fused reporters are not part of them.
UniProt P62942, whole entry: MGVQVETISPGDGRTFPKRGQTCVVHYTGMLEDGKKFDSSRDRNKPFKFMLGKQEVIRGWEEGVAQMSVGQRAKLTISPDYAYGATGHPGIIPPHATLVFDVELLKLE

Target: T1, FKBPwt (Homo sapiens, UniProt P62942)
T1 construct: made in house
Experiment: Competitive fluorescence polarization (FP) binding assay of rapalogs to FKBP
Settings: =IC50/IC50 of rapamycin; C24 analogs, Table 4

Structure (SMILES): CON=C1CC(C(C)CC2CCC(O)C(OC)C2)OC(=O)C2CCCCN2C(=O)C(=O)C2(O)OC(CCC2C)CC(OC)C(C)=CC=CC=CC(C)CC(C)C(=O)C(OC)C(O)C(C)=CC1C (single isomer, unassigned) [Compound 5, Rapamycin (E and Z)-24-(O-methyloxime)]
- fold loss in affinity (vs rapamycin): 616
